Results as given in patent US9387206B2, “Therapeutic approaches for treating Alzheimer's disease” (PHARNEXT, priority 2009, dated 2016).

Tested on: human brain microvascular endothelial cells (HBMEC)
Test: Total length of capillary network in human Aβ1-42 intoxicated HBMEC cultures
Assay type: cell-based
Details: VEGF 10 nM, 1 hr pre-treatment; Aβ1-42 2.5 μM, 18 h
Experimental: Human brain microvascular endothelial cell cultures were used to study the protection afforded by candidate compounds on Aβ1-42 toxicity.
Human brain microvascular endothelial cerebral cells (HBMEC, ScienCell Ref: 1000, frozen at passage 10) were rapidly thawed in a water bath at +37° C. […] On matrigel support, endothelial cerebral cells spontaneously started the process of capillary network morphogenesis (47).
Three separate cultures were performed per condition, 6 wells per condition.
The control medium was prepared in the same conditions.
The Aβ1-42 peptide was added 2 hours after HBMEC seeding on matrigel for 18 hours incubation.
Capillary Network Quantification
Per well, 2 pictures with 4× lens were taken using InCell Analyzer™ 1000 (GE Healthcare) in light transmission. All images were taken in the same conditions. Analysis of the angiogenesis networks was done using Developer software (GE Healthcare). The total length of capillary network was assessed.
All values are expressed as mean±s.e.mean of the 3 cultures (n=6 per condition). Statistical analyses were done on the different conditions performing an ANOVA followed by the Dunnett's test when it was allowed (Statview software version 5.0). […] Indeed, the amyloid toxicity was taken as the 100% and the test compound effect was calculated as a % of this amyloid toxicity.

VEGF was tested. Which “Capillary network compared to amyloid intoxication” value did it give?
Its value is “+78%”.
